The assay addresses Platelet rich plasma, PRP (Canis lupus familiaris, UniProt A0A8I3N5G5+A0A8I3PMU9). Description: Inhibition of platelet aggregation, PRP/ADP. The assay is classed as cell-based. The settings on record: dog platelet rich plasma, 2 μM ADP, peptide added 3 min. prior to agonist; read-out: Antiaggregatory Activity IC50, μM PRP/ADP. The protocol:
Blood was collected (citrated to prevent coagulation) from, naive, adult mongrel dogs. Platelet rich plasma, PRP, was prepared by centrifugation at 150×g for 10 min. at room temperature. Washed platelets were prepared by centrifuging PRP at 800×g for 10 min. The cell pellet thus obtained was washed twice in Tyrode's buffer (pH 6.5) without Ca^2+ and resuspended in Tyrode's buffer (pH 7.4) containing 1.8 mM Ca^2+ at […]. Peptides were added 3 min. prior to the agonist in all assays of platelet aggregation. Final agonist concentrations were 0.1 unit/ml thrombin and 2 μM ADP (Sigma). Aggregation was monitored in a Chrono-Log Lumi-Aggregometer. Light transmittance 5 min. after addition of the agonist was used to calculate percent aggregation according to the formula % aggregation=[(90-CR).div.(90-10)]×100, where CR is the chart reading, 90 is the baseline, and 10 is the PRP blank reading. IC50 's were determined by plotting [% inhibition of aggregation] vs. [concentration of peptide]. Peptides were assayed at 200 μM and diluted sequentially by a factor of 2 to establish a suitable dose response curve.

The chains behind the UniProt entries cited, without tags or fusion partners. Residues count along the entry.
UniProt A0A8I3N5G5, 1-1047: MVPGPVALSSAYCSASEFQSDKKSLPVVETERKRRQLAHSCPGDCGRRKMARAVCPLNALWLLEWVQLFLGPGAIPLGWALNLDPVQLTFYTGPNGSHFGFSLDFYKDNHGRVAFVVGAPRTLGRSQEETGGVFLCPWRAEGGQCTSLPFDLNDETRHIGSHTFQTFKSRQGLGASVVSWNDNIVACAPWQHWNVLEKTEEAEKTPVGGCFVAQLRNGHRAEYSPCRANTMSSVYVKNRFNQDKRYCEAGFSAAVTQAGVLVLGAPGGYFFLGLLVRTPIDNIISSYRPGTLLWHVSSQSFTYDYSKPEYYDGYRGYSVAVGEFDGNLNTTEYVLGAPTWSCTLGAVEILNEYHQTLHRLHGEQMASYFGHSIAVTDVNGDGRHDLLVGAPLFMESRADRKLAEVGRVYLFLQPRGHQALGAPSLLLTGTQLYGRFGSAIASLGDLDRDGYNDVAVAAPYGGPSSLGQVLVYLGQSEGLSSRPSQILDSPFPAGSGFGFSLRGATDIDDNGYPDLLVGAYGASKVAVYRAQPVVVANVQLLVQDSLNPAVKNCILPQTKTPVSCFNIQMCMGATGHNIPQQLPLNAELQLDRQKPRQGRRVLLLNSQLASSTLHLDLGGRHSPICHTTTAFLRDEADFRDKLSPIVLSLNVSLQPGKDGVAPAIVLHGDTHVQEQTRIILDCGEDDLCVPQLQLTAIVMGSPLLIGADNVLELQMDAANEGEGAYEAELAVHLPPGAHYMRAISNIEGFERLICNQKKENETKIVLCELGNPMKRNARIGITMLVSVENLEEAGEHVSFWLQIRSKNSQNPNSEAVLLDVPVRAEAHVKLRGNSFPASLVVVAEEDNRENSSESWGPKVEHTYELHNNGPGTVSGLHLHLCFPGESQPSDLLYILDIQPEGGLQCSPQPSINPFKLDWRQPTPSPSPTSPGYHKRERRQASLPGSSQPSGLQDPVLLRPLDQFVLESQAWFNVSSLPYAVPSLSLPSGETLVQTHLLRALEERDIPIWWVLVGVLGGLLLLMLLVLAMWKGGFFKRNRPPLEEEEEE
UniProt A0A8I3PMU9, 1-919: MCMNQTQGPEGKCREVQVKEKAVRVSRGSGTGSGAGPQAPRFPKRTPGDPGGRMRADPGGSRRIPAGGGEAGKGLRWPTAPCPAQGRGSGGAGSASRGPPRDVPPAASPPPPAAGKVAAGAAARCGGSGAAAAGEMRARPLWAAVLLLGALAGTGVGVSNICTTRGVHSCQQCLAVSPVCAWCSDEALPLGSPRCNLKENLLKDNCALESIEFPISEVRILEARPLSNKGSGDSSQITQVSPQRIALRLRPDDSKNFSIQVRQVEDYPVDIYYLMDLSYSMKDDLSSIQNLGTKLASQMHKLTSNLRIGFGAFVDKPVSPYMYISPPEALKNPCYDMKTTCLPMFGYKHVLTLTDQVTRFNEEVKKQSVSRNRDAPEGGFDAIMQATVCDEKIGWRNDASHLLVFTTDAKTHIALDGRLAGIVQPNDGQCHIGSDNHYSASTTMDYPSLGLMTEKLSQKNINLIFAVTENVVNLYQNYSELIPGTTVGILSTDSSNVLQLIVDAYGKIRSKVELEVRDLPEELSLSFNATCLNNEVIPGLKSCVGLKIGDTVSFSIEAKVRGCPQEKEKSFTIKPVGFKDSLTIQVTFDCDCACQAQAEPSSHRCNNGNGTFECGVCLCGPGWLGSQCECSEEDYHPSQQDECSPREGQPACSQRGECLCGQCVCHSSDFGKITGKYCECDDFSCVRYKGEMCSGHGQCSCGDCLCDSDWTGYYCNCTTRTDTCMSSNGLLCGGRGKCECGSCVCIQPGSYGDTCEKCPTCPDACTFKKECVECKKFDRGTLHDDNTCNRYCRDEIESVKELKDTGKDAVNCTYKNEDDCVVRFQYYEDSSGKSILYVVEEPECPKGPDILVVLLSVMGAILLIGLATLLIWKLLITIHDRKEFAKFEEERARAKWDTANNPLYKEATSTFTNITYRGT

From patent US5849690A, “Anti-aggregatory peptides” (SmithKline Beecham Corporation, priority 1992, dated 1998) come the findings set out here.

On to “N^α -Ac-Cyclo(S,S)Cys-MeArg-Gly-Asp-MeSer-Cys-NH2 [Example 6]”, for which the IC50 is 77 µM.
